One assay concerns the target MNK1 (Homo sapiens, UniProt Q9BUB5). Nature of the assay: In vitro MNK kinase assay (Caliper LabChip mobility shift). Conditions: enzymatic, 1.2 mM ATP. The assay is classed as biochemical.
The next assay addresses MNK2 (Homo sapiens (Human), UniProt Q9HBH9). Described as above. The class given is biochemical. The note with it: enzymatic, 250 μM ATP.

The chains behind the UniProt entries cited, without tags or fusion partners. Residues count along the entry.
UniProt Q9HBH9, 84-388: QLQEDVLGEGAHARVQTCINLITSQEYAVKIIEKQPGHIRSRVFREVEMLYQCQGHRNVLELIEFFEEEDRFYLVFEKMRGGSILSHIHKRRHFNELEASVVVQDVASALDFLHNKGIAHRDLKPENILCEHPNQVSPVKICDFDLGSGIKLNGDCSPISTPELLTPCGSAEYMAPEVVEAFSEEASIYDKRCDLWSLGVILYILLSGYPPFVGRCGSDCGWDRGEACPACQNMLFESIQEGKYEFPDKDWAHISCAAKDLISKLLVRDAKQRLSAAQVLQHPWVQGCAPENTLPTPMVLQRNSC

The structures appear in SMILES notation.

A word on the IC50: it is the concentration needed to halve the response being measured.

Regarding `CN1CCN(C(=O)c2ccc(-c3cn4c(-c5ccc(C#N)cc5)cnc4cn3)cc2)CC1` [Example 6, 4-(6-(4-(4-methylpinerazine-1-carbonyl)phenyl)imidazo[1,2-a]pyrazin-3-yl)benzonitrile], the IC50 on MNK1 and at MNK2 was less than 1000 nM each time.

Turning to `CN1CCN(C(=O)c2ccc(-c3ccc4ncc(-c5ccc(O)cc5)n4c3)cc2)CC1` [Example 175, (4-(3-(4-hydroxyphenyl)imidazo[1,2-a]pyridin-6-yl)phenyl)(4-methylpiperazin-1-yl)methanone], at MNK1, the concentration for half-maximal inhibition (IC50) was less than 1000 nM.

The values above are taken from US9908886B2 (Agency for Science, Technology and Research, priority 2012, dated 2018).
